Test results published in article PMC4068829 (Journal of medicinal chemistry, 2013).

Columns and labels:
MATE1 [1] = molecular target: T1, MATE1 (Homo sapiens, UniProt Q96FL8); assay: High throughput screen
T1 sequence (Q96FL8 1-570): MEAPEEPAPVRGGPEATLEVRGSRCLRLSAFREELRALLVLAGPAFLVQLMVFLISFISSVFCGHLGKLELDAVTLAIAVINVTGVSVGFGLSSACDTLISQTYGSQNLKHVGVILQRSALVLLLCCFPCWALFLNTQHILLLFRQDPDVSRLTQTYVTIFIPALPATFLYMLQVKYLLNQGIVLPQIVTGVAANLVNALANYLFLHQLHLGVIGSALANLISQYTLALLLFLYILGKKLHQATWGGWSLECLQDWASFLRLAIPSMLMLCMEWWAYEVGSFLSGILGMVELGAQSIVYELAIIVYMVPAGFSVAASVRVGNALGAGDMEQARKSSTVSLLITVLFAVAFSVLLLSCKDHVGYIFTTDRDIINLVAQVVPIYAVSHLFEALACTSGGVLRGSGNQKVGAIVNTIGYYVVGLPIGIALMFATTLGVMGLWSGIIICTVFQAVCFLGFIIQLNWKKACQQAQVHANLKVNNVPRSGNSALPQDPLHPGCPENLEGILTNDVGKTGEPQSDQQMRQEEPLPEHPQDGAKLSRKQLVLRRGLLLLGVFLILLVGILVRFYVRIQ

MATE1 [2] = molecular target: T1, MATE1

Row | SMILES | IC50 (MATE1 [1]) [µM] | IC50 (MATE1 [2]) [µM]
1 | Oc1c(Cl)cc(Cl)cc1Sc1cc(Cl)cc(Cl)c1O [Bithionol] | 3 | 
2 | COc1cc(C(=O)NS(=O)(=O)c2ccccc2C)ccc1Cc1cn(C)c2ccc(NC(=O)OC3CCCC3)cc12 [Zafirlukast] | 19 | 4.3

Where two headings read alike, the source gives them in different places.
